Experiments:
[1] = biological target: T1, HDAC2 (Homo sapiens, UniProt Q92769); assay: HDAC2 inhibition, trypsin-coupled kinetic fluorescence homogeneous assay (Example 10); assay type: biochemical; conditions: read-out: X50
[2] = biological target: HDAC1 (Homo sapiens, UniProt Q13547); assay: HDAC biochemical assay of P5-P12 (Table P1); conditions: read-out: HDAC1 IC50
[3] = biological target: T1, HDAC2; assay: HDAC biochemical assay of P5-P12 (Table P1); conditions: read-out: HDAC2 IC50
[4] = biological target: HDAC3 (Homo sapiens, UniProt O15379); assay: HDAC biochemical assay of P5-P12 (Table P1); conditions: read-out: HDAC3 IC50
[5] = biological target: T2, HDAC6 (Homo sapiens, UniProt Q9UBN7); assay: HDAC biochemical assay of P5-P12 (Table P1); conditions: read-out: HDAC6 IC50, 200 μM TCEP
T2 sequence (Q9UBN7 1-1215): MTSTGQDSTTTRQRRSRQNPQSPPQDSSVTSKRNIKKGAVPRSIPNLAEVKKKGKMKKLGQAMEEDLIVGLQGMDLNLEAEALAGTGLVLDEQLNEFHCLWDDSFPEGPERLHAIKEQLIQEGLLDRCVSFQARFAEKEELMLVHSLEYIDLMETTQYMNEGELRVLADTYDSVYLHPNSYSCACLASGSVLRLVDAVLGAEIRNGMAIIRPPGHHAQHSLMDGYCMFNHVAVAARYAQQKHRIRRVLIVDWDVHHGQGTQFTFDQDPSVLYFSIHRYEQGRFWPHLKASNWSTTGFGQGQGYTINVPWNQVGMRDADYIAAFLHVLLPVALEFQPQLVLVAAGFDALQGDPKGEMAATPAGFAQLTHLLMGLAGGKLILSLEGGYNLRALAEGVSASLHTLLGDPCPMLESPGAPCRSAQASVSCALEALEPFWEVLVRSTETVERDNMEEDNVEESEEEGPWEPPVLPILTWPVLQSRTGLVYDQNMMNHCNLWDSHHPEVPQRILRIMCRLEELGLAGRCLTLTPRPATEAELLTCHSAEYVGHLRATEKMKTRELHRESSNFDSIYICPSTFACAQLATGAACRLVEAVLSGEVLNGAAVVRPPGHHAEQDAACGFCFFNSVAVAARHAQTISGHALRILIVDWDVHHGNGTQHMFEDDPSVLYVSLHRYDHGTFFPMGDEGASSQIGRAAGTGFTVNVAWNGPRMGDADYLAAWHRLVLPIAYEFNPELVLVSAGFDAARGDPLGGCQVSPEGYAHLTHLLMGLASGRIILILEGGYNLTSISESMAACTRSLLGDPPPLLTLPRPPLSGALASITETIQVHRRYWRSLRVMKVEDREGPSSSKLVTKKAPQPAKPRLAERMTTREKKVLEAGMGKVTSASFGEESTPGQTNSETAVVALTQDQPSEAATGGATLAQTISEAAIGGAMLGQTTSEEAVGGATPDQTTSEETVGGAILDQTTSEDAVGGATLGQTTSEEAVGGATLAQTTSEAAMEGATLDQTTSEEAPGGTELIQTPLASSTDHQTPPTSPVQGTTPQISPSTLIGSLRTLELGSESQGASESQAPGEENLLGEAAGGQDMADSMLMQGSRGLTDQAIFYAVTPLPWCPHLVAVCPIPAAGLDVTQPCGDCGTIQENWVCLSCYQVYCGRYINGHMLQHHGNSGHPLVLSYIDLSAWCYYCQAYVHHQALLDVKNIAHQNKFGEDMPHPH

Sequences of proteins named here, by UniProt entry; tags and fusion partners are left off. A change or cut given only in a name is not applied to a line headed by its entry.
UniProt Q92769, whole entry: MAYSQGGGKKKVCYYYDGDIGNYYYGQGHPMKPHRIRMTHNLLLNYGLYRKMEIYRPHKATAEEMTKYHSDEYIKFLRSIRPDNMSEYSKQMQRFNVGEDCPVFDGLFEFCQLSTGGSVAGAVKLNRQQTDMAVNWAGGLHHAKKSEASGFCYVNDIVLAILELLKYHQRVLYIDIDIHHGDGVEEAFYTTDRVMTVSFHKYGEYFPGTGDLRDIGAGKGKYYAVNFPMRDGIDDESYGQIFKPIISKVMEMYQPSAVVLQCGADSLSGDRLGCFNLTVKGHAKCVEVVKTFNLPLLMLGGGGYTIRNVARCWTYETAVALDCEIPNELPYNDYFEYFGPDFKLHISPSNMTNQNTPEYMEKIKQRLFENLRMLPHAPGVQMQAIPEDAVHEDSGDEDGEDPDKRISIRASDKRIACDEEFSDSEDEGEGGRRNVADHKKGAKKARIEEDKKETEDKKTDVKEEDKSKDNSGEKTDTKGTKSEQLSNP
UniProt Q13547, whole entry: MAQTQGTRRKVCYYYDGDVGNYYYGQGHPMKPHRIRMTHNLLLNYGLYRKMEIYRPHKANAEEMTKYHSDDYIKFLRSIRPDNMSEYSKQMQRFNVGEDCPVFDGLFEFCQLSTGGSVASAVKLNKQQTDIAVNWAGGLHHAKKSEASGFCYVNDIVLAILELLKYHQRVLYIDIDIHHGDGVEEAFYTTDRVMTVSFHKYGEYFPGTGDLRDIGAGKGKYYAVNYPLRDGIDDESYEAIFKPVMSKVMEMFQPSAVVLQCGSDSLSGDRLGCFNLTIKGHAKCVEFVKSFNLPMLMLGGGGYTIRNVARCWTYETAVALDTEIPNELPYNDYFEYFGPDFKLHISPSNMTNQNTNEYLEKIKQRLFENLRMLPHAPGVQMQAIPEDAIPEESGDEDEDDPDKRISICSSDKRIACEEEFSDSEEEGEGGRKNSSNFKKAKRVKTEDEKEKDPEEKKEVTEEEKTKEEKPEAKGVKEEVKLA
UniProt O15379: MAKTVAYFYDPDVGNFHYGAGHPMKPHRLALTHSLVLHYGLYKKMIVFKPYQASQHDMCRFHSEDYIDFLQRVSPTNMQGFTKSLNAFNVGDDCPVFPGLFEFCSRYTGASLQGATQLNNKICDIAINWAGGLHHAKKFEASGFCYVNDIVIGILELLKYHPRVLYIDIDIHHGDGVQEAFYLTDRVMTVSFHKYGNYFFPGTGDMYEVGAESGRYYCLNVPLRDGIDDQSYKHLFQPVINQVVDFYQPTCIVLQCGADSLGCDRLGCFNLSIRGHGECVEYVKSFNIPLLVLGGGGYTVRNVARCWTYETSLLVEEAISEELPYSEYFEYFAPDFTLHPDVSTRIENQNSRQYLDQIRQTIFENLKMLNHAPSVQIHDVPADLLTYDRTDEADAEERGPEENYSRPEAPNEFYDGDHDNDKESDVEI

SMILES: CC(C)[C@@H]1NC(=O)[C@]2(C)CSC(=N2)c2csc(n2)CNC(=O)C[C@@H](/C=C/CCS)NC1=O [Largazole peptide isostere thiol]
- IC50 [1]: 11.1 nM
- IC50 [2]: 1.95 nM
- IC50 [3]: 3.38 nM
- IC50 [4]: 2.59 nM
- IC50 [5]: 102 nM

Reference: patent publication US10676504B2 (Colorado State University Research Foundation, priority 2015, dated 2020)
